Key:
[1] = Phase 2a trial: glycated albumin; details: 150, 300, 450 mg QD, 61 days (p<0.0001, high dose)
[2] = SAD phase I study: safety and tolerability; details: single oral doses of 30-1400 mg
[3] = MAD study: body weight and average glucose level
[4] = MAD study: systolic and diastolic blood pressure
[5] = tested on: mouse model of NASH (DIAMOND™ mice); assay: Mouse model of NASH (DIAMOND mice), oral administration
[6] = Single-dose tolerability and repeat-dose toxicity, mice; details: 7-days
[7] = Single-dose tolerability and repeat-dose toxicity, dogs; details: up to 61 days
[8] = MAD phase I study: safety, body temperature, heart rate
[9] = Phase 2a trial: safety and tolerability, adverse events (Table 5)
[10] = Phase 2a trial: anticipated increase in resting energy expenditure
[11] = Phase 2a trial: high sensitivity C-reactive protein (hsCRP) (Table 15); details: for hsCRP change from baseline, Difference of LS Mean and Placebo (SEM) / hsCRP mean change from baseline, LS Mean (SEM): Day 61, FAS population
[12] = Assessment of food effect (500 mg, fed versus fasted crossover, Cohort 4)
[13] = Nonclinical PK of Compound 1 and 2,4-dinitrophenol after oral administration
[14] = Phase 2a trial: liver fat by MRI-PDFF (change and responder rate; Tables 7-9); details: for Non-responder (MRI-PDFF), number of subjects / Non-responder (MRI-PDFF), percent of subjects / Responder (>30% liver fat reduction by MRI-PDFF), number of subjects / Responder (>30% liver fat reduction by MRI-PDFF), percent of subjects: Day 61; for MRI-PDFF change at Day 61, Difference of LS Mean and Placebo / MRI-PDFF mean change from baseline at Day 61, LS Mean (ANCOVA): FAS population; for relative reduction in liver fat (MRI-PDFF) / responder rate (>30% relative reduction of liver fat): 61 days
[15] = tested on: rat model of metabolic syndrome (Zucker diabetic fatty rats); assay: Rat model of metabolic syndrome (Zucker diabetic fatty rats), oral administration
[16] = 200 mg QD oral, high BMI subjects
[17] = 150 mg, FAS Population (N = 20)
[18] = 150 mg, HbA1c 5.7%-9.0% (N = 7)
[19] = 300 mg, FAS Population (N = 21)
[20] = 300 mg, HbA1c 5.7%-9.0% (N = 8)
[21] = 450 mg, FAS Population (N = 18)
[22] = 450 CM1, HbA1c 5.7%-9.0% (N = 7)
[23] = All CM1 doses, FAS Population (N = 59)
[24] = All CM1 doses, HbA1c 5.7%-9.0% (N = 22)

## Cn1c(COc2ccc([N+](=O)[O-])cc2[N+](=O)[O-])cnc1[N+](=O)[O-]
[1]
  glycated albumin: Dose dependent reduction
[2]
  Serious Adverse Events (SAEs): no Serious Adverse Events (SAEs) reported
  safety and tolerability: safe and well tolerated
[3]; MAD study (FIG. 8)
  body weight: reduces
[3]; MAD study (FIG. 9)
  glucose level: reduces
[4]; all three dose levels (FIG. 10)
  systolic blood pressure: reduces
[4]; all three dose levels (FIG. 11)
  diastolic blood pressure: reduces
[5]
  dose level demonstrating efficacy: 5 mg/kg/day
[6]
  well tolerated dose: up to 100 /kg/day
[7]
  well tolerated dose: up to 100 mg/kg/day
[8]; [16]
  SAEs: no SAEs
  tolerability: tolerated
[8]; MAD QD dosing period (FIG. 6)
  body temperature: no significant increase in body temperature
[8]; MAD study (FIG. 12)
  heart rate: not accompanied with an increase in heart rate
[9]; 150 mg daily (N = 20)
  Number of adverse events: All TEAEs: 42
  Number of adverse events: Serious TEAEs: 0
  Number of adverse events: Treatment-related TEAEs: 24
  Subjects with at least 1 Severe TEAE, %: (5.0) %
  Subjects with at least 1 TEAE leading to withdrawal of study drug, %: (10.0) %
  Subjects with at least 1 Treatment-emergent adverse event (TEAE), %: (65.0) %
  Subjects with at least 1 Treatment-related TEAE, %: (45.0) %
  Treatment-related TEAE of maximum severity Mild, %: (25.0) %
  Treatment-related TEAE of maximum severity Moderate, %: (15.0) %
  Treatment-related TEAE of maximum severity Severe, %: (5.0) %
[9]; 300 mg daily (N = 21)
  Number of adverse events: All TEAEs: 53
  Number of adverse events: Serious TEAEs: 0
  Number of adverse events: Treatment-related TEAEs: 37
  Subjects with at least 1 TEAE leading to withdrawal of study drug, %: (4.8) %
  Subjects with at least 1 Treatment-emergent adverse event (TEAE), %: (81.0) %
  Subjects with at least 1 Treatment-related TEAE, %: (76.2) %
  Treatment-related TEAE of maximum severity Mild, %: (41.6) %
  Treatment-related TEAE of maximum severity Moderate, %: (28.6) %
[9]; 450 mg daily (N = 19)
  Number of adverse events: All TEAEs: 54
  Number of adverse events: Serious TEAEs: 0
  Number of adverse events: Treatment-related TEAEs: 34
  Subjects with at least 1 Treatment-emergent adverse event (TEAE), %: (84.2) %
  Subjects with at least 1 Treatment-related TEAE, %: (73.7) %
  Treatment-related TEAE of maximum severity Mild, %: (57.9) %
  Treatment-related TEAE of maximum severity Moderate, %: (15.8) %
[9]; All CM1 (N = 60)
  Number of adverse events: All TEAEs: 149
  Number of adverse events: Serious TEAEs: 0
  Number of adverse events: Treatment-related TEAEs: 95
  Subjects with at least 1 Severe TEAE, %: (1.7) %
  Subjects with at least 1 TEAE leading to withdrawal of study drug, %: (5.0) %
  Subjects with at least 1 Treatment-emergent adverse event (TEAE), %: (76.7) %
  Subjects with at least 1 Treatment-related TEAE, %: (65.0) %
  Treatment-related TEAE of maximum severity Mild, %: (43.3) %
  Treatment-related TEAE of maximum severity Moderate, %: (20.0) %
  Treatment-related TEAE of maximum severity Severe, %: (1.7) %
[9]; Compound 1 subjects, all doses
  subjects with diarrhea (TEAE): 25%
  subjects with transient flushing associated with alcohol intake (TEAE): 31.6%
[9]; all dose levels, 61 days
  Serious Adverse Events or deaths: No Serious Adverse Events or deaths were reported
  tolerability: well-tolerated
[10]; 150 mg
  anticipated increase in resting energy expenditure: 10%
[10]; 300 mg
  anticipated increase in resting energy expenditure: 20%
[10]; 450 mg
  anticipated increase in resting energy expenditure: 30%
[11]; 150 mg
  hsCRP change from baseline, Difference of LS Mean and Placebo (SEM): −0.79 (0.656)
  hsCRP mean change from baseline, LS Mean (SEM): −0.22 (0.464)
[11]; 300 mg
  hsCRP change from baseline, Difference of LS Mean and Placebo (SEM): −1.60 (0.640)
  hsCRP mean change from baseline, LS Mean (SEM): −1.02 (0.440)
[11]; 450 mg
  hsCRP change from baseline, Difference of LS Mean and Placebo (SEM): −2.22 (0.655)
  hsCRP mean change from baseline, LS Mean (SEM): −1.65 (0.460)
[11]; 150, 300, 450 mg QD, 61 days (p<0.005, high dose)
  high sensitivity C-reactive protein (hsCRP): Dose dependent reduction
[12]; 500 mg single oral dose
  Compound 1 AUC0-24h geometric mean ratio (90% CI) of Fed versus Fasted: 5.11 (1.75-14.9)
  Compound 1 AUClast geometric mean ratio (90% CI) of Fed versus Fasted: 4.19 (2.75-6.39)
  Compound 1 Cmax geometric mean ratio (90% CI) of Fed (test) versus Fasted (reference): 1.82 (1.30-2.56)
[12]; standard high fat (50%) meal, 500 mg Compound 1
  AUC increase under fed conditions relative to fasted conditions: > 4.0 fold
[13]; oral Compound 1
  AUC/Cmax ratios for 2,4-dinitrophenol versus administration of 2,4-dinitrophenol directly: significantly higher
  Tmax for 2,4-dinitrophenol versus direct oral administration of 2,4-dinitrophenol: substantially delayed
[13]; oral, all species (mice, rats, dogs)
  absorption and conversion: rapidly absorbed with conversion to 2,4-dinitrophenol
[14]; [17]
  Non-responder (MRI-PDFF), number of subjects: 10
  Non-responder (MRI-PDFF), percent of subjects: (50.0%)
  Responder (>30% liver fat reduction by MRI-PDFF), number of subjects: 8
  Responder (>30% liver fat reduction by MRI-PDFF), percent of subjects: (40.0%)
[14]; [18]
  Non-responder (MRI-PDFF), number of subjects: 3
  Non-responder (MRI-PDFF), percent of subjects: (42.9%)
  Responder (>30% liver fat reduction by MRI-PDFF), number of subjects: 3
  Responder (>30% liver fat reduction by MRI-PDFF), percent of subjects: (42.9%)
[14]; [19]
  Non-responder (MRI-PDFF), number of subjects: 5
  Non-responder (MRI-PDFF), percent of subjects: (23.8%)
  Responder (>30% liver fat reduction by MRI-PDFF), number of subjects: 15
  Responder (>30% liver fat reduction by MRI-PDFF), percent of subjects: (71.4%)
[14]; [20]
  Non-responder (MRI-PDFF), number of subjects: 1
  Non-responder (MRI-PDFF), percent of subjects: (12.5%)
  Responder (>30% liver fat reduction by MRI-PDFF), number of subjects: 6
  Responder (>30% liver fat reduction by MRI-PDFF), percent of subjects: (75.0%)
[14]; [21]
  Non-responder (MRI-PDFF), number of subjects: 5
  Non-responder (MRI-PDFF), percent of subjects: (27.8%)
  Responder (>30% liver fat reduction by MRI-PDFF), number of subjects: 13
  Responder (>30% liver fat reduction by MRI-PDFF), percent of subjects: (72.2%)
[14]; [22]
  Non-responder (MRI-PDFF), number of subjects: 1
  Non-responder (MRI-PDFF), percent of subjects: (14.3%)
[14]; [23]
  Non-responder (MRI-PDFF), number of subjects: 20
  Non-responder (MRI-PDFF), percent of subjects: (33.9%)
[14]; [24]
  Non-responder (MRI-PDFF), number of subjects: 5
  Non-responder (MRI-PDFF), percent of subjects: (22.74%)
[14]; CM1 150 mg (N = 20)
  MRI-PDFF percent change from Baseline to Day 61, Mean: −33.389%
  MRI-PDFF percent change from Baseline to Day 61, Median: −32.830%
[14]; CM1 150 mg
  MRI-PDFF change at Day 61, Difference of LS Mean and Placebo: −5.21
  MRI-PDFF mean change from baseline at Day 61, LS Mean (ANCOVA): −4.64
[14]; CM1 300 mg (N = 21)
  MRI-PDFF percent change from Baseline to Day 61, Mean: −42.958%
  MRI-PDFF percent change from Baseline to Day 61, Median: −41.400%
[14]; CM1 300 mg
  MRI-PDFF change at Day 61, Difference of LS Mean and Placebo: −6.77
  MRI-PDFF mean change from baseline at Day 61, LS Mean (ANCOVA): −6.21
[14]; CM1 450 mg (N = 18)
  MRI-PDFF percent change from Baseline to Day 61, Mean: −40.369%
  MRI-PDFF percent change from Baseline to Day 61, Median: −42.335%
[14]; CM1 450 mg
  MRI-PDFF change at Day 61, Difference of LS Mean and Placebo: −6.60
  MRI-PDFF mean change from baseline at Day 61, LS Mean (ANCOVA): −6.03
[14]; high dose (450 mg QD)
  relative reduction in liver fat (MRI-PDFF): 40%
  responder rate (>30% relative reduction of liver fat): 72%
[14]; low dose (150 mg QD)
  relative reduction in liver fat (MRI-PDFF): 33%
  responder rate (>30% relative reduction of liver fat): 40%
[14]; mid dose (300 mg QD)
  relative reduction in liver fat (MRI-PDFF): 43%
  responder rate (>30% relative reduction of liver fat): 71%
[15]
  dose level demonstrating efficacy: ≥ 0.5 mg/kg/day
